The values below come from US20060194259A1, “Method for isolating an allosteric effector of a receptor” (priority 2002, published 2006).

This experiment addresses receptor EGFP-NK2R (UniProt P16610). Nature of the experiment: Inhibition of the binding of [3H]SR 48968 to EGFP-NK2R. As to conditions: 1 nM [3H]SR48968; maximal reversal. More on the design: % al (max): maximum value observed for the increase in amplitude of the rapid dissociation rate; ns = n; other: 20 nM of NK; % al (at 10 μM); other: compou; fused on or other part: EGFP fused to the receptor as FRET donor. The protocol:
25,000 cells expressing the receptor EGFP-NK2R are incubated for 3 hours at 4° C. in a final volume of 500 μl of Hepes buffer in the presence of 1 nM of [^3H] SR48968 and variable concentrations of NKA or 805. On completion of the incubation, the reaction mixtures are filtered on GF/C (Whatmann) glass fibre filters previously incubated in Hepes buffer complemented by 1% (W/V) of powdered semi-skimmed milk, and rinsed three times with 5 ml of Hepes buffer at 4° C. The filters are then arranged in scintillation counter vials to which 3 ml of scintillating cocktail is added. The radioactivity is measured after 16 hours in a radioactivity counter.

In the case of neurokinin A [NKA], the “% of the binding of [3H]SR 48968 reversed” value turned out to be 100%.
